Reference: PubChem BioAssay AID504634 (The Scripps Research Institute Molecular Screening Center, 2011)
“And” between values parts separate entries of the source, which are not always exact repeats. Equal values may be shown once. The entries are a selection whose mix differs from that of the whole data set. The source made the active and inactive calls. Rule as the data show it: active = inhibition mostly above about 23% (no sharp cut-off); inactive = mostly below about 18%.

The chains behind the UniProt entries cited, without tags or fusion partners.
UniProt P47898, whole entry, looked up: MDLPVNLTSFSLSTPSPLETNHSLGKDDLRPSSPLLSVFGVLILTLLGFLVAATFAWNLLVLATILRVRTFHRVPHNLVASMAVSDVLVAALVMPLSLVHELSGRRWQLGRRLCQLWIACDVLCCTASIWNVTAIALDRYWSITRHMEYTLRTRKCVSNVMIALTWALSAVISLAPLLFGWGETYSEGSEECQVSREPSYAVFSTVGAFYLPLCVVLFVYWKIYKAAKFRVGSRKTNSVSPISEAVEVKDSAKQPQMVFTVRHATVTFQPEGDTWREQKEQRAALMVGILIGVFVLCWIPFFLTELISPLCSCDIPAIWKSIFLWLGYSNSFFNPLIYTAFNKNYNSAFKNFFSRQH

What follows are compounds tested against 5-hydroxytryptamine receptor 5A (Homo sapiens) (UniProt P47898) (assay: inverse agonism at human 5-HT5A receptor – cell-based, luminescence, full-deck HTS, counter-screen for OPRM1-OPRD1 heterodimer inverse agonist project, primary screen (AID 504634;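 also: 0% = cells with DMSO and 100% = no-cell wells with DMSO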)). Details: HTR5A cell line, at 9.3 µM, active compounds read high.

Row | Compound | inhibition
1 | CC(O)c1nc2ccccc2n1CC(=O)Nc1ccc(F)cc1Cl (stereo not drawn) | inactive: 20.2%
2 | CN1CCC(N(C)c2nc(-c3ccc([N+](=O)[O-])cc3)nc3ccccc23)CC1 | inactive: 9.45%
3 | O=C(Nc1ccc(F)cc1)N1CCn2c(nc3ccccc32)C1 | inactive: 6.55%
4 | C[C@H](NC(=O)N1CCn2c1nc1ccccc12)C(=O)NCc1ccco1 | inactive: 2.81%
5 | O=C1Nc2ccccc2C12Nc1ccccc1-c1nc3ccccc3n12 (stereo not drawn) | inactive: -4.67%
6 | CC(NC(=O)[C@H](C)NC(=O)N1CCn2c1nc1ccccc12)c1ccccc1 (stereo partly drawn) | inactive: -2.62%
7 | Cc1ccccc1NC(=O)Cn1c(=O)n(C)c2ccccc21 | inactive: 4.47%
8 | Cc1ccccc1OCC(O)Cn1c(=N)n(CCN2CCOCC2)c2ccccc21 (stereo not drawn) | inactive: 4.56% and inactive: -20.6%
9 | CCN(CC)CCn1c(NCc2ccc3c(c2)OCO3)nc2ccccc21 | inactive: -17.2%
10 | O=C(NCc1ccccc1)N1CCn2c(nc3ccccc32)C1 | inactive: -3.35%
11 | Cn1c(=O)c2c(ncn2CC(=O)N/N=C/C(Br)=C/c2ccccc2)n(C)c1=O | inactive: -38.4%
12 | O=[N+]([O-])c1ccc(-c2cc([N+](=O)[O-])c(O)c([N+](=O)[O-])c2)cc1 | inactive: 5.12%
13 | Cc1ccc(S(=O)(=O)Nc2ccc3c(c2)nc2n3CCN(Cc3ccccc3)C2)cc1 | inactive: -37.4%
14 | COc1ccc(NC(=O)N2CCn3c2nc2ccccc23)cc1 | inactive: 0.88%
15 | O=[As](O)(c1ccc(O)cc1)c1ccccc1O | inactive: -3.42%
16 | C[As](=O)(O)c1cccc(C(=O)O)c1 | inactive: -18.2%
17 | CN1CCN(c2nc3c(c(=O)[nH]c(=O)n3C)n2CC(N)=O)CC1 | inactive: -3.4%
18 | CSc1nc2ccccc2n1CC(=O)Nc1c(C)cccc1C | inactive: 10.7%
19 | Cc1ccc(SCc2nc3ccccc3n2CC(=O)Nc2c(C)cccc2C)cc1 | inactive: -21.3%
20 | CC1c2nc3ccccc3n2C(CC(=O)NCCCN2CCOCC2)C(=O)N1Cc1ccccc1 (stereo not drawn) | inactive: -3.11%

Row | Compound | inhibition
21 | COc1ccc(CCNC(=O)[C@@H](NC(=O)N2CCn3c2nc2ccccc23)C(C)C)cc1OC | inactive: -2.06%
22 | O=C(Cn1c(-c2ccccn2)nc2ccccc21)NCCN1CCOCC1 | inactive: -10.8%
23 | O=[N+]([O-])c1cc([N+](=O)[O-])c(-c2ccn[nH]2)s1 | inactive: -1.78%
24 | O=C(Cn1cnc2c(NCc3ccccc3)ncnc21)NCCCc1ccccc1 | inactive: -1.17%
25 | O=C(Cn1c2[n+](c3ccc(C(F)(F)F)cc31)CCCCC2)Nc1c(F)cccc1F | inactive: -1.72%
26 | COC(=O)[C@H](CC(C)C)NC(=O)Cn1cnc2c(SC)nc(N)nc21 | inactive: -0.04%
27 | Cn1c(=O)c2c(ncn2CC(=O)Nc2nc(-c3ccccc3Cl)cs2)n(C)c1=O | inactive: -4%
28 | O=C(OC1CN2CCC1CC2)c1cccc2[nH]cnc12 (stereo not drawn) | inactive: 1.14%
29 | C=C(C)Cn1c(=O)c2c(nc3n2CCN3c2cccc(Cl)c2C)n(C)c1=O | inactive: -1.85%
30 | CCN(CC)C(=S)SC(NC=O)C(Cl)(Cl)Cl (stereo not drawn) | inactive: 2.5%
31 | O=C(Nc1nc2ccccc2n1CCN1CCOCC1)c1cn(-c2ccccc2)nc1-c1ccccc1 | inactive: 11.9%
32 | COc1cc(NC(=O)Cn2cnc3c(OCc4ccccc4)ncnc32)cc(OC)c1OC | inactive: -9.67%
33 | O=C(CCNC(=O)N1CCn2c1nc1ccccc12)NCc1ccc(F)cc1 | inactive: 16%
34 | O=C(Cn1c(C(F)(F)F)nc2ccccc21)N1CCCC1 | inactive: -12%
35 | Cc1ccc(-c2csc(NCCn3c(C)nc4cc(C(F)(F)F)ccc43)n2)cc1 | inactive: -5.07%
36 | Cc1ccc(Cn2nnnc2CN2CCC(n3nnc4cc(C)ccc43)CC2)cc1 | inactive: -0.27%
37 | Cn1c(=O)c2c(nc(CN3CCC(Cc4ccccc4)CC3)n2CCN2CCOCC2)n(C)c1=O | inactive: 10.1%
38 | CC1CCN(C(=O)Cn2cnc3c2c(=O)n(C)c(=O)n3C)c2ccccc2S1 (stereo not drawn) | inactive: 16.4%
39 | Cc1cccc(CSc2nc3ccncc3n2CC(=O)Nc2cc(C)cc(C)c2)c1 | inactive: -24.1%
40 | C[C@H](NC(=O)N1CCn2c1nc1ccccc12)C(=O)NC1CC1 | inactive: 7.95%

Row | Compound | inhibition
41 | CCC(=O)Nc1cccc(C(=O)/C=C/c2ccc(F)cc2)c1 | inactive: 17.5%
42 | Cc1ccc(NC(=O)Cn2cnc3c(=O)n(C)c(=O)n(C)c32)c(C)c1 | inactive: -2.36%
43 | CCOC(=O)CC[C@H](NC(=O)Cn1cnc2c(NCc3ccccc3)ncnc21)C(=O)OCC | inactive: -10.1%
44 | Cc1nc2ccccc2n1CC(=O)NCCN1CCCC1 | inactive: -4.46%
45 | CC1(C)c2ccccc2N2CCC(=O)NC21/C=C/c1ccco1 (stereo not drawn) | inactive: 6.24%
46 | Cc1ccsc1/C=N/NC(=O)Cn1cnc2ccccc21 | inactive: -15.7%
47 | ClCCSc1nnc(-c2cccnc2)o1 | inactive: -1.23%
48 | Cn1c(=O)c2c(ncn2CC(=O)N2CCN(c3cccc(Cl)c3)CC2)n(C)c1=O | inactive: -2.15%
49 | Cc1ccc2c(c1)C1CN(C)CCC1N2C(=O)CCCN1C(=O)c2cccc3cccc(c23)C1=O (stereo not drawn) | inactive: 5.04%
50 | Cc1cc(C)c(CN2CCN(C(=O)Cn3cnc4c(NCc5ccccc5)ncnc43)CC2)c(C)c1 | inactive: -24.3%
51 | CC(C)NC(=O)Cn1c(SCC(=O)c2ccc(F)cc2)nc2ccccc21 | inactive: -19.8%
52 | N=c1n(CCN2CCCCC2)c2ccccc2n1CC(=O)c1cccc([N+](=O)[O-])c1 | inactive: -14.2%
53 | CCC(=O)Nc1nc2ccccc2n1CCN(CC)CC | inactive: 12.2%
54 | COc1ccccc1NC(=O)N1CCn2c(nc3ccccc32)C1 | inactive: -25.2%
55 | COC(=O)c1ccc(CNC(=O)Cn2cnc3c(SC)nc(N)nc32)cc1 | inactive: -6.87%
56 | CC(C)c1ccc(OP(=O)(Nc2ccccn2)Oc2ccccc2F)cc1 (stereo not drawn) | inactive: 11.4%
57 | c1csc(CNc2nc3ccccc3n2CCN2CCOCC2)c1 | inactive: -11.2%
58 | CCC(C(=O)NC1CCCCC1)n1c(SCc2ccccc2F)nc2ccncc21 (stereo not drawn) | inactive: -1.91%
